# Measured values: article PMC5187433, “A bromodomain–DNA interaction facilitates acetylation-dependent bivalent nucleosome recognition by the BET protein BRDT” (Nature Communications, 2016)
# Experiments:
# [1] = target: Chimeric histone H3-H4K5acK8ac nucleosome (human) (UniProt P68431); assay: ITC; BET bromodomain proteins (200-260 uM) titrated into nucleosomes (6-11 uM); 20 °C; 20 mM Tris pH 8.0, 150 mM NaCl, 1 mM EDTA, 1 mM TCEP
# [2] = target: H4K5acK8ac nucleosome (human); assay: as above
# N-BRDT(1) (Homo sapiens) = N-BRDT(1) (Homo sapiens) (UniProt Q58F21); assay: EMSA; details: EMSA: 20 mM Tris pH 7.5, 100 mM NaCl, 5 mM DTT, 0.5 mM EDTA, 4 C; ITC: 20 mM Tris pH 8.0, 150 mM NaCl, 1 mM EDTA, 1 mM TCEP, 20 C; NMR at 34 C
Kd [1],stoichiometry N [1],stoichiometry N [2],Kd [2],Substance,Kd (N-BRDT(1) (Homo sapiens))
4.8 µM,2.11,2.11,,N-BRDT(1) (from UniProt Q58F21 1-143) (domain or fragment),
,,1.52,11.8 µM,BRD4(1) (from UniProt O60885 44-168) (domain or fragment),
,,,,TCGGGGGCCGCCCTGGAGAATCCCGGTGCCGAGGCCGCTCAATTGGTCGTAGACAGCTCTAGCACCGCTTAAACGCACGTACGCGCTGTCCCCCGCGTTTTAACCGCCAAGGGGATTACTCCCTAGTCTCCAGGCACGTGTCAGATATATACATCCTGTGCATGTAC / CCGAGTACATGCACAGGATGTATATATCTGACACGTGCCTGGAGACTAGGGAGTAATCCCCTTGGCGGTTAAAACGCGGGGGACAGCGCGTACGTGCGTTTAAGCGGTGCTAGAGCTGTCTACGACCAATTGAGCGGCCTCGGCACCGGGATTCTCCAGGGCGGCCC [167 bp Widom DNA],15 µM
